## Apparent affinities of Ab-14 variants for a coronavirus HR2 peptide

Data: MIT Lincoln Laboratory AlphaSeq set, Li et al. 2023, doi:10.1038/s41467-023-39022-2, as distributed in FLAb.

Binding partner: SARS-CoV-2 spike HR2 peptide, sequence PDVDLGDISGINAS.

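The starting antibody came from a phage panning campaign against this peptide. This is the validation round: designs drawn from the data on random variants, tested in the same kind of assay. Several design methods are mixed in this list. AlphaSeq pools MATa yeast showing the antibodies with MATalpha yeast showing the peptide. Pairs that bind mate more often; barcode pairs of the diploids are counted by sequencing. Read counts were normalised to the haploid input and turned into Kd by a linear fit to BCL2-family pairs of known affinity, for each replicate. Mating was done six times.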

Each scFv is VH, three GGGGS repeats, VL, as in the parent Ab-14, and differs from it in the CDRs of the light chain only.
VH: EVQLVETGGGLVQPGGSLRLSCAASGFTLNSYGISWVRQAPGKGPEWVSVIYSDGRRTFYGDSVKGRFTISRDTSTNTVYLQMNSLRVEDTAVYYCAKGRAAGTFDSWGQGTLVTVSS
VL: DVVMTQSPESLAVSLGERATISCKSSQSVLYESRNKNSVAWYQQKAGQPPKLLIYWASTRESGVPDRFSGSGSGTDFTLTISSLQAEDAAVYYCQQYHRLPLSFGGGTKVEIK

Variants are written as CDR1, CDR2 and CDR3 of the light chain (limits as in the source). Parent: KSSQSVLYESRNKNSVA, WASTRES, QQYHRLPLS.
Numbers give log10(Kd / nM), so 0 is 1 nM and 3 is 1 µM. Smaller is tighter.
Replicates are averaged; those with no signal do not enter the mean.
"ND" marks a missing value. The strain was present, yet no cells mated with the target were sequenced in that replicate, which points to weak or no binding.
Order: sorted from the lowest average up, undetected variants last.

"replicates, log10 nM","log10 Kd (nM), mean",CDR-L1,CDR-L2,CDR-L3
-0.11 -0.25 -0.27 -0.51 -0.71 -0.50,-0.39,KLSQSKLYESRNKNNVA,DASQRES,QQYHRLPLS
-0.32 -0.50 -0.26 -0.29 -0.49 -0.30,-0.36,KSFQSELEEQRNKNSVA,SASTRLS,QQYHRLPLS
-0.03 -0.25 -0.49 -0.36 -0.27 -0.16,-0.26,KLQQSFLYEERNPNSVA,NASKREL,QQYHRLPLS
-0.03 -0.02 -0.19 -0.28 -0.17 0.02,-0.11,KLDQSQLYESRNKNSVA,NASTRLS,QQYHRLPLS
0.08 -0.03 -0.04 -0.35 -0.06 -0.07,-0.08,KFSQGGPYEQRQKNSVA,NASQRES,QQYHRLPLS
-0.03 0.13 0.01 0.06 -0.01 0.07,0.04,KFEQSTLYESRNKNSVA,NASTRES,QQYHRLPLS
0.13 0.17 0.12 0.10 0.04 0.11,0.11,KVSQQNLYESRNKNSVA,NASTRES,QQYHRLPLS
0.30 0.05 0.08 -0.01 -0.11 0.46,0.13,KSSQSVGYESTNKNSVA,QASTRES,QQYHRLPLS
0.27 -0.20 0.18 -0.04 0.65 0.07,0.16,KSSQSYAYESRNKNSVA,GASTRES,QQYHRLPLS
0.33 0.22 0.20 0.05 0.16 0.30,0.21,KLSQQWLQQWRNKNSVA,NASTRES,QQYHRLPLS
0.41 0.31 0.09 0.24 0.15 0.27,0.24,KSSLSYLYESRNKNSVA,EASTRES,QQYHRLPLM
0.81 0.39 0.54 0.36 0.52 0.30,0.49,KSSQSVLPESRNKNSVA,WASTREY,QQYLRLPLS
0.61 0.37 0.45 0.72 0.39 0.41,0.49,KSSQSVQDNSVNKNSVA,GASTRES,QQYHRLPLS
0.68 0.49 0.42 0.42 0.19 0.80,0.50,HMSMLTLQGMRHTNSVA,QMTTREN,QQYDRLPLA
0.47 0.54 0.65 0.42 0.30 0.79,0.53,KMSKSVLYESRNKNSVA,WASTREV,QQYHRLPLE
0.50 0.77 0.47 0.59 0.47 0.79,0.60,KLSQSVLYESRNKNSVA,YASERES,QQYHRLPLS
0.64 0.45 0.47 0.61 0.86 0.95,0.66,KSDPSVLYESRNKNSVA,KASTRES,QQYHSLPLS
0.69 0.50 0.74 1.07 0.61 0.78,0.73,KVSQSQLYESRMKNSVA,NASTRES,QQYHRLPLS
1.16 0.20 0.51 ND 0.88 0.99,0.75,KSSMSVLYESRNLNSVA,AASTRES,QQYHRLPLS
1.04 0.96 0.75 0.99 0.80 1.07,0.94,DSSQSVLYEDRNKNSVA,DASTRES,QEYHRLPLS
1.08 1.42 0.75 0.71 0.84 0.98,0.96,KLRQVTGYESYAKNSVA,QTSTRAS,QDYHRLPLS
1.30 0.97 0.58 0.89 0.90 1.41,1.01,TISQMLLMQTSHKNNVA,GEETRYN,QQYHRLPLS
0.84 1.26 0.80 1.18 0.94 1.50,1.09,LISSVWDYGSRNYNSVA,QTSTRES,QQYDRLPLS
1.27 1.09 0.58 0.99 1.29 2.19,1.24,HIGLATMSQETVRNSVA,NNSTRES,QQYDRLPLS
1.11 0.77 1.83 1.72 0.88 1.60,1.32,SLHMYTLTEKNANNSIA,EKSYRAY,QQYSHLPLV
1.14 1.60 1.95 1.39 1.08 1.33,1.42,IIDSIMFHGNKRANSIA,QASERVN,QQYHHLPLT
1.70 1.53 1.62 1.21 1.10 1.43,1.43,KLSQSVLDEFRNKNSVA,WASTRES,QSYHRLPLS
1.16 1.69 2.54 0.71 1.22 1.50,1.47,MISQLMNMGQFAINSVA,QASLRNE,QQYDRLPLI
1.51 1.68 1.85 1.14 1.26 1.42,1.47,KVSSFMRGLMMRTDSIA,DNETRES,QQYDRLPLS
ND 1.66 1.10 2.16 ND ND,1.64,KSSPSQLYEDRMDNSVA,NASYRES,QQYHRLPLS
ND 1.16 ND 1.53 1.09 2.87,1.66,KSSQSQLYESRNKNSVA,FASTRES,QLYHILPLS
ND ND 1.45 1.92 1.94 1.48,1.70,MISQIYNMGQFAINSVA,QASVRNV,QQYDRLPLM
1.88 1.58 1.30 ND 1.89 2.07,1.74,MISQLWNMGQFAINSVA,QAQIRNQ,QQYDRLPLA
1.40 ND 1.57 1.73 1.73 2.77,1.84,NFYMDAAEFVNEDSSIA,DAEISYD,QQYHRLPLV
2.27 1.78 ND 2.41 1.24 1.64,1.87,YSSDSVLYEARNKNSVA,SASMRES,QQYHRLPLS
1.46 1.70 1.66 2.62 2.24 2.30,2.00,KVSEFMKGLMMRKDNIA,DNNTRSN,QQYDRLPLS
1.48 1.63 0.87 2.64 3.54 ND,2.03,KSSQSVLLESRNKNSVA,WASMRES,QQYHRLPLS
ND ND ND 2.31 1.97 2.33,2.20,RISMQFTWPGNARQNVA,EIQKAID,QQYAHLPLS
ND 1.70 2.89 2.33 1.91 2.57,2.28,KSSQSVLQESRNTNSVA,WASTRES,QQYHRLPLS
2.16 ND ND 2.54 2.32 3.34,2.59,TIGATLMQGVRNSSNVA,EVSERLN,QQYDRLPLI
ND ND ND ND 3.18 3.76,3.47,KSSQSVMEESRNKNSIA,WVTTRES,QQYHRLPLS
ND ND ND ND ND ND,ND,KSSQSYLYESRNKNSVA,WASTRES,QQYHRLPES
ND ND ND ND ND ND,ND,MLSDLVKMGSRNTNSVA,DNSTRGP,QQYDRLPLS

The 2 strongest on average among those seen in every replicate, once more:

CDR-L1,CDR-L2,CDR-L3,"replicates, log10 nM","log10 Kd (nM), mean"
KLSQSKLYESRNKNNVA,DASQRES,QQYHRLPLS,-0.11 -0.25 -0.27 -0.51 -0.71 -0.50,-0.39
KSFQSELEEQRNKNSVA,SASTRLS,QQYHRLPLS,-0.32 -0.50 -0.26 -0.29 -0.49 -0.30,-0.36

As a blank, each scFv also met three strains without target: over all light chain designs, 4% of these pairings were detected, typically at 2.64 and seldom below 1.59.
Of ten entries with the parent sequence, four were seen in most replicates (averages 0.34 to 2.37), three in one and three in none, so single entries are noisy.
A sequence measured in both rounds can read differently, since the two assays cover different ranges.
The authors' rule: three or more of the six replicates give a measured affinity, fewer mean a poor binder.